The source of these data is ChEMBL document CHEMBL4177750, “Imidazopyrazinones (IPYs): Non-Quinolone Bacterial Topoisomerase Inhibitors Showing Partial Cross-Resistance with Quinolones” (J Med Chem, 2018).

By UniProt entry, the sequences of proteins in these tests, tags left out.
UniProt P0AES4, whole entry, looked up: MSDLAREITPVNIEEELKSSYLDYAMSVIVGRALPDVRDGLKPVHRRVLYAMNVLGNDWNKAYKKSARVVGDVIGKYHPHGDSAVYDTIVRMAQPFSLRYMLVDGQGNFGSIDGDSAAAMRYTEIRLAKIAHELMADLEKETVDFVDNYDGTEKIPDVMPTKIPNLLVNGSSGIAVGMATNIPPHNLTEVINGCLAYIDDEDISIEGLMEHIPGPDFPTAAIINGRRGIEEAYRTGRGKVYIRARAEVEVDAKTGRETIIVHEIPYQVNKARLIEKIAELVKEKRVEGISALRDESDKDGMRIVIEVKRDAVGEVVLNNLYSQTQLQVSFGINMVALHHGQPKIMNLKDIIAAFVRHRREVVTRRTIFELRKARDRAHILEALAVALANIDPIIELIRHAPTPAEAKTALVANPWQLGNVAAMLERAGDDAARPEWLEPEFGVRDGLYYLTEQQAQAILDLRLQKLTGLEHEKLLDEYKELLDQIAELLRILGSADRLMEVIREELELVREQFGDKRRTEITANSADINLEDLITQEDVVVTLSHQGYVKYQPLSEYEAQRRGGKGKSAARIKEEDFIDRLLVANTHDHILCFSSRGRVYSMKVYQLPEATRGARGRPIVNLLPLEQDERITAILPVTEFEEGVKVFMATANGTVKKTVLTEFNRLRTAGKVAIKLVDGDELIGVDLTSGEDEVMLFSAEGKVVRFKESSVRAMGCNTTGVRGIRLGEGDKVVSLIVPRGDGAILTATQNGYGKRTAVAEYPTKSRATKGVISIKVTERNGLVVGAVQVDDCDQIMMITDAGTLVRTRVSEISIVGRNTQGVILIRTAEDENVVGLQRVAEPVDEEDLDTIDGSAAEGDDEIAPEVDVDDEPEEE

The target in the assay is DNA gyrase (Escherichia coli, UniProt P0AES4+P0AES6).

Regarding `O=c1c2nccn2c2cc(F)c(-c3ccncc3)cc2n1C1CC1`, the IC50 is 2500 nM.
